These results are taken from US8530461B2 (Boehringer Ingelheim International GmbH, priority 2011, dated 2013).

Protein sequences, listed by entry. Tags and fused reporters are not part of them. Residues count along the entry.
UniProt O00763, 129-2458 limits assumed: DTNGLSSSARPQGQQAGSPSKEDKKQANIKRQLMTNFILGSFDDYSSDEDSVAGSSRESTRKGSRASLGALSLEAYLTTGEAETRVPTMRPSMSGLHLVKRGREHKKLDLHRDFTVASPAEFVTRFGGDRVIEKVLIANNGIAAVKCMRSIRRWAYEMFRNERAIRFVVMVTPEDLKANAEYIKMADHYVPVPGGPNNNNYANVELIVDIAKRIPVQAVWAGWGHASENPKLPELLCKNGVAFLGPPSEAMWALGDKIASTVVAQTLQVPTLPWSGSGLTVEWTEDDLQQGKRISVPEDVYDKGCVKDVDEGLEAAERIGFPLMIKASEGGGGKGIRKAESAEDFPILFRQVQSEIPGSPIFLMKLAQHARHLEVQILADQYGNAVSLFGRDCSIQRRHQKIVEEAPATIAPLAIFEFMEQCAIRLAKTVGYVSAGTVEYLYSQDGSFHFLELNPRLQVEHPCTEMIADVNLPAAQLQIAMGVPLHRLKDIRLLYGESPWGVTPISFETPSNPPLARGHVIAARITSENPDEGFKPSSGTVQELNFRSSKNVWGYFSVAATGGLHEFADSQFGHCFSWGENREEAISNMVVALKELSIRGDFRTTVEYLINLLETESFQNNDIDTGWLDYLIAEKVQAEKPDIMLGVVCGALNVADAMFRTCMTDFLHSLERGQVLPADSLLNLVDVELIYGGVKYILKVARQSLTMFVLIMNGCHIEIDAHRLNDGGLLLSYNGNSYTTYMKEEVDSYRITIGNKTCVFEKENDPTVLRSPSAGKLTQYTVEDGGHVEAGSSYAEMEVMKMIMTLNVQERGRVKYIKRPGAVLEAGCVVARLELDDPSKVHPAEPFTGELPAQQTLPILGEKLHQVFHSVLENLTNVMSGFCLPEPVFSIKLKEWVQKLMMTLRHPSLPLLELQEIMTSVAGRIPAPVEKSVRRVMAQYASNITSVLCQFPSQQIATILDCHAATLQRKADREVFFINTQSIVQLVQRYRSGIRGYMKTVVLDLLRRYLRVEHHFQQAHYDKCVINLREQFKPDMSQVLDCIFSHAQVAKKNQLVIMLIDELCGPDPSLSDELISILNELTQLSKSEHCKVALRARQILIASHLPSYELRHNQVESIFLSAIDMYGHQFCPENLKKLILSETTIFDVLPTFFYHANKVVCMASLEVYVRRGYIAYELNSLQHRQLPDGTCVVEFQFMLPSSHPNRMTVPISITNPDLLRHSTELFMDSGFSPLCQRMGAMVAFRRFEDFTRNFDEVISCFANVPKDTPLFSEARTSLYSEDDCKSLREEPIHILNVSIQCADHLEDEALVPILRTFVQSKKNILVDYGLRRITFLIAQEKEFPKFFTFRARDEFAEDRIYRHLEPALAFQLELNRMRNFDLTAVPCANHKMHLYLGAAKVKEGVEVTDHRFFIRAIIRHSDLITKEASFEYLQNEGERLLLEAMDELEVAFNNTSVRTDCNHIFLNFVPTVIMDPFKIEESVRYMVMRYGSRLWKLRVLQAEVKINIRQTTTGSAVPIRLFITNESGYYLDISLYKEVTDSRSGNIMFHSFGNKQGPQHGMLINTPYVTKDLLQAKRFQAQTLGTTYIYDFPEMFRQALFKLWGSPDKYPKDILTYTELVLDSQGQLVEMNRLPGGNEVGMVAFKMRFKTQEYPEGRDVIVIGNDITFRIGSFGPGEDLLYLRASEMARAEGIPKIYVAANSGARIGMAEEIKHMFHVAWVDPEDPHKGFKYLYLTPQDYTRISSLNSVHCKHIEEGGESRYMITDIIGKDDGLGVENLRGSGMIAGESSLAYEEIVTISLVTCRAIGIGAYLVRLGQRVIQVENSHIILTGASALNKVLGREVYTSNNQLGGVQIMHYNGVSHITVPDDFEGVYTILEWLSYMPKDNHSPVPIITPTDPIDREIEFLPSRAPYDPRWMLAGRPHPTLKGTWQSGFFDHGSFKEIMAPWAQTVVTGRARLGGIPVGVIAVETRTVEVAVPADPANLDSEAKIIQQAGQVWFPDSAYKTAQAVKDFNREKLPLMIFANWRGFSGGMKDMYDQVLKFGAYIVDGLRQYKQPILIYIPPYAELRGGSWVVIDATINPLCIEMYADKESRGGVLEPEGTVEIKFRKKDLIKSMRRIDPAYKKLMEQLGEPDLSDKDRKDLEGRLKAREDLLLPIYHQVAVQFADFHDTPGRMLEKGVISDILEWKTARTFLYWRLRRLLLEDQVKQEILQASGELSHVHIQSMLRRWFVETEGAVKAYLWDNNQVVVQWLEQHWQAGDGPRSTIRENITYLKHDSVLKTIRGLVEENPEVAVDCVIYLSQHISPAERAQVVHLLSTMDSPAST

SMILES strings stand for the structures.

The assay concerns the target human ACC2 (Homo sapiens, UniProt O00763). The assay is described as follows: ACC2 assay, spectrophotometric 384 well assay (NADH-linked, coupled lactate dehydrogenase/pyruvate kinase). Particulars: human ACC2 construct lacking 128 N-terminal amino acids, 25° C., 340 nm, 15 minutes. The protocol: Spectrophotometric 384 Well Assay
Malonyl CoA formation by acetyl CoA carboxylases is stoichometrically linked to the consumption of ATP. ACC2 activity is measured in a NADH-linked kinetic method measuring ADP generated during the ACC reaction using a coupled lactate dehydrogenase/pyruvate kinase reaction.
For biological testing, a human ACC2 construct which lacks the 128 amino acids at the N-terminus for increased solubility (nt 385-6966 in Genbank entry AJ575592) is cloned. The protein is then expressed in insect cells using a baculoviral expression system. Protein purification is performed by anion exchange.
All compounds are dissolved in dimethyl sulfoxide (DMSO) to a concentration of 10 mM.
Assay reactions are then carried out in 384-well plates, with hACC2 in an appropriate dilution and at final assay concentrations (f.c.) of 100 mM Tris (pH 7.5), 10 mM trisodium citrate, 25 mM KHCO3, 10 mM MgCl2, 0.5 mg/ml BSA, 3.75 mM reduced L-glutathione, 15 U/ml lactate dehydrogenase, 0.5 mM phosphoenolpyruvate, 15 U/ml pyruvate kinase, compounds at different concentrations at final DMSO concentrations of 1%.
The enzymatic reaction is then started by addition of a mixture of NADH, acetyl Coenzyme A (both […].) and ATP (500 uM f.c.). The decrease of the optical density (slope S) is then determined at 25° C. at a wavelength of 340 nm over 15 minutes in a spectrophotometric reader. […]

In general, IC50 refers to the concentration at which inhibition is half-maximal. The compound `CCOc1ccc(OC2CN(c3ccc([C@H](C)NC(=O)N4CC(C)(O)C4)cc3)C2)cc1` showed an IC50 of 1460 nM.
